Experimental data: patent publication US20260382650A1, “PHARMACEUTICAL COMPOSITION FOR TREATING PULMONARY INFLAMMATORY DISEASE, AND PREPARATION AND APPLICATION THEREOF” (published 2026)

Columns and labels:
[1] = tested on: LPS-induced RAW264.7 mouse macrophages; test: NO production inhibition in LPS-induced RAW264.7 macrophages (Griess); conditions: LPS 1 μg/mL; for maximum inhibition rate of NO production: 100 μM, 24 hrs; for inhibition of NO production (in words): compounds, 3.13-100 μM
Quinone reductase (QR) = test: Quinone reductase (QR)-inducing activity in Hepa 1c1c7 cells; conditions: for QR induction factor: 100 μM, 24 hrs
RAW 264.7 cells = test: MTT cytotoxicity in RAW 264.7 cells; conditions: compounds, 3.13-100 μM
[2] = tested on: Human liver immortalized THLE-2 cells; test: Hepatotoxicity, MTT viability of THLE-2 cells; conditions: 24 hrs
[3] = tested on: LPS-induced pathological lung damage in mice; test: LPS-induced acute lung injury, lung H&E histopathology; conditions: 20 mg/kg each, intragastric; combination 20 + 20 mg/kg; LPS 10 mg/kg; day 14
COX-2 = test: LPS-induced acute lung injury, qRT-PCR of lung tissue: COX-2 mRNA; conditions: 20 mg/kg each, intragastric; combination 20 + 20 mg/kg; LPS 10 mg/kg
IL-1β [4] = test: LPS-induced acute lung injury, qRT-PCR of lung tissue: IL-1β mRNA; conditions: 20 mg/kg each, intragastric; combination 20 + 20 mg/kg; LPS 10 mg/kg
NLRP3 = test: LPS-induced acute lung injury, qRT-PCR of lung tissue: NLRP3 mRNA; conditions: 20 mg/kg each, intragastric; combination 20 + 20 mg/kg; LPS 10 mg/kg
caspase-1 = test: LPS-induced acute lung injury, qRT-PCR of lung tissue: caspase-1 mRNA; conditions: 20 mg/kg each, intragastric; combination 20 + 20 mg/kg; LPS 10 mg/kg
Human liver THLE-2 cells = test: ROS production in THLE-2 cells (DCHF-DA, flow cytometry); conditions: 24 hrs
IL-1β [5] = test: LPS-induced acute lung injury, IL-1β in BALF by ELISA; conditions: 20 mg/kg each, intragastric; combination 20 + 20 mg/kg; LPS 10 mg/kg
[6] = tested on: inflammatory cells in peripheral blood of LPS-induced mice; test: LPS-induced acute lung injury, complete blood count; conditions: 20 mg/kg each, intragastric; combination 20 + 20 mg/kg; LPS 10 mg/kg
SLC7A11 = test: LPS-induced acute lung injury, SLC7A11 in lung tissue (Western blot/qRT-PCR); conditions: 20 mg/kg, intragastric; LPS 10 mg/kg
GPX4 = test: LPS-induced acute lung injury, GPX4 in lung tissue (Western blot/qRT-PCR); conditions: 20 mg/kg, intragastric; LPS 10 mg/kg
[7] = tested on: human bronchial epithelial Beas-2B cells; test: Transcriptomic analysis in LPS-induced Beas-2B cells; conditions: for downregulated genes / upregulated genes: compared with the inflammation group, |log FC|>1; for potential anti-inflammatory functional genes (targets): intersection of inflammation-group and treatment-group genes regulated in opposite directions (Venny 2.1.0)

Compound | maximum inhibition rate of NO production [1] | inhibition of NO production (in words) [1] | QR induction (in words) (Quinone reductase (QR)) | QR induction factor (Quinone reductase (QR)) | hepatotoxicity / cell viability (in words) [2] | inflammatory symptoms in lung tissue (H&E) [3] | COX-2 mRNA level in lung tissue (COX-2) | IL-1B mRNA level in lung tissue (IL-1β [4]) | NLRP3 mRNA level in lung tissue (NLRP3) | caspase-1 mRNA level in lung tissue (caspase-1) | ROS levels (in words) (Human liver THLE-2 cells) | level of IL-1β in BALF (IL-1β [5]) | neutrophil count in blood [6] | white blood cell count in blood [6] | SLC7A11 protein level (SLC7A11) | GPX4 protein level (GPX4) | other results
CC1O[C@@H](OC2[C@H](Oc3c(-c4ccc(O)cc4)oc4c([C@]56O[C@@]5(c5ccc(O)cc5)Oc5cc(O)cc(O)c5C6=O)c(O)cc(O)c4c3=O)OC(CO)[C@@H](O)[C@@H]2O)C(O)[C@@H](O)[C@H]1O (some centres unmarked) | 60.59% | dose-dependently inhibiting NO production | induced QR activity in a dose-dependent manner | 2.13 | – | – | – | – | – | – | – | – | – | – | – | – | cytotoxicity (RAW 264.7 cells): no cytotoxicity
O=C1CCC[C@@H]2[C@H]3CCCN4CCC[C@@H](CN12)[C@@H]34 | – | – | – | – | toxic to normal liver cells, inhibiting cell viability in a dose-dependent manner | significantly alleviated these inflammatory symptoms | inhibited the increase in the mRNA levels | inhibited the increase in the mRNA levels | inhibited the increase in the mRNA levels | inhibited the increase in the mRNA levels | increasing ROS levels in a dose-dependent manner | reduced the level of IL-1B | reduced both counts | reduced both counts | – | – | maximum ROS induction factor (Human liver THLE-2 cells; combinations at ratio 1:1): 2.37 fold
O=c1c(O)c(-c2ccc(O)cc2)oc2cc(O)cc(O)c12 | 85.46% | dose-dependently inhibiting NO production | induced QR activity in a dose-dependent manner | 3.65 | effectively reduced the hepatotoxicity of matrine | significantly alleviated these inflammatory symptoms | inhibited the increase in the mRNA levels | inhibited the increase in the mRNA levels | inhibited the increase in the mRNA levels | inhibited the increase in the mRNA levels | effectively reduced the ROS levels induced by matrine | reduced the level of IL-1B | reduced both counts | reduced both counts | significantly promoted the increase in SLC7A11 and GPX4 | significantly promoted the increase in SLC7A11 and GPX4 | –
CC1O[C@@H](OC2[C@H](Oc3c(-c4ccc(O)cc4)oc4cc(O)cc(O)c4c3=O)OC(CO)[C@@H](O)[C@@H]2O)C(O)[C@@H](O)[C@H]1O (some centres unmarked) | – | – | – | – | – | significantly alleviated these inflammatory symptoms | inhibited the increase in the mRNA levels | inhibited the increase in the mRNA levels | inhibited the increase in the mRNA levels | inhibited the increase in the mRNA levels | – | reduced the level of IL-1B | reduced both counts | reduced both counts | significantly promoted the increase in SLC7A11 and GPX4 | significantly promoted the increase in SLC7A11 and GPX4 | –
O=C1C=CC[C@@H]2[C@@H]3CCCN4CCC[C@@H](CN12)[C@@H]34 | – | – | – | – | – | – | – | – | – | – | – | – | – | – | – | – | downregulated genes [7]: 92 genes; upregulated genes [7]: 243 genes; potential anti-inflammatory functional genes (targets) [7]: 335 potential anti-inflammatory functional genes (targets)
CC1O[C@@H](OC2[C@H](Oc3c(-c4ccc(O)cc4)oc4c([C@@]56O[C@]5(c5ccc(O)cc5)Oc5cc(O)cc(O)c5C6=O)c(O)cc(O)c4c3=O)OC(CO)[C@@H](O)[C@@H]2O)C(O)[C@@H](O)[C@H]1O (some centres unmarked) | 59.48% | dose-dependently inhibiting NO production | induced QR activity in a dose-dependent manner | 3.65 | effectively reduced the hepatotoxicity of matrine | – | – | – | – | – | effectively reduced the ROS levels induced by matrine | – | – | – | – | – | downregulated genes [7]: 76 genes; upregulated genes [7]: 303 genes; potential anti-inflammatory functional genes (targets) [7]: 379 potential anti-inflammatory functional genes (targets); cytotoxicity (RAW 264.7 cells): no cytotoxicity
O=c1c(O[C@@H]2O[C@H](CO)[C@@H](O)[C@H](O)[C@H]2O)c(-c2ccc(O)cc2)oc2cc(O)cc(O)c12 | – | – | – | – | – | significantly alleviated these inflammatory symptoms | inhibited the increase in the mRNA levels | inhibited the increase in the mRNA levels | inhibited the increase in the mRNA levels | inhibited the increase in the mRNA levels | – | reduced the level of IL-1B | reduced both counts | reduced both counts | significantly promoted the increase in SLC7A11 and GPX4 | significantly promoted the increase in SLC7A11 and GPX4 | –
